Measured values taken from US20160274108A1, “DIAGNOSTIC METHODS FOR PAR4 ANTAGONIST THERAPY” (BRISTOL-MYERS SQUIBB COMPANY, priority 2013, published 2016).

Molecular target: T1, washed platelet suspension (Homo sapiens, UniProt Q96RI0)
T1 sequence (Q96RI0 48-385): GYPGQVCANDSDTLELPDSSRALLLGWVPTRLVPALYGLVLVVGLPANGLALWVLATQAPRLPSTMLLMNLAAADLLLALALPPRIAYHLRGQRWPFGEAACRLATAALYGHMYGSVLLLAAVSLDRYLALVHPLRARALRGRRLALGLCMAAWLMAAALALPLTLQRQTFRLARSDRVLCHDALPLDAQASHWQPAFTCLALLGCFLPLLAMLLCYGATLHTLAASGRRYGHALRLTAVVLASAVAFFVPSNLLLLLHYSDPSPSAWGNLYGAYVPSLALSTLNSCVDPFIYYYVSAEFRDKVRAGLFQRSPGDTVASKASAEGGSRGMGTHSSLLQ
Assay: PAR4 agonist peptide induced platelet aggregation assay (96-well microplate)
Assay type: cell-based
Settings: read-out: ED50 (μM) [Platelet Aggregation]; washed platelets, 37° C., read at 405 nm up to 15 minutes
Procedure: The ability of the peptides comprising Formulas (I) to (IV) to induce platelet aggregation was tested in a 96-well microplate aggregation assay format. Briefly, a washed platelet suspension with varying concentrations of agonist compounds was assayed. Aggregation was initiated by the addition of a titered test agonist peptide. The plate was then placed into a 37° C. Molecular Devices SPECTRAMAX® Plus Plate Reader (Sunnyvale, Calif.). […] The plate also included an untreated control sample that served as ODmax, while buffer containing no platelets was the ODmin. Platelet aggregation was determined by subtracting the ODmax from the ODmin for the 100% aggregation value. In experimental samples, the observed transmission was subtracted from the minimum value and then compared to the 100% aggregation value to determine the percentage aggregation. ED50 values were determined using Excel Fit software.

| SMILES | EC50 [µM] |
| --- | --- |
| CC(C)C[C@H](NC(=O)[C@H](Cc1c[nH]c2ccccc12)NC(=O)CNC(=O)[C@@H]1CCCN1C(=O)[C@H](Cc1ccc(F)cc1)NC(=O)[C@H](C)N)C(=O)N[C@H](C(N)=O)C(C)C [compound 6] | 1.1 |
| CC(C)C[C@H](NC(=O)[C@H](Cc1c(F)c(F)c(F)c(F)c1F)NC(=O)CNC(=O)[C@@H]1CCCN1C(=O)[C@H](Cc1ccc(F)cc1)NC(=O)[C@H](C)N)C(=O)N[C@H](C(N)=O)C(C)C [compound 24] | 0.69 |
| CC(C)C[C@H](NC(=O)[C@H](Cc1cccc2ccccc12)NC(=O)CNC(=O)[C@@H]1CCCN1C(=O)[C@H](Cc1ccc(F)cc1)NC(=O)[C@H](C)N)C(=O)N[C@H](C(N)=O)C(C)C [compound 31] | 0.63 |
| CC(C)C[C@H](NC(=O)[C@H](Cc1ccc2ccccc2c1)NC(=O)CNC(=O)[C@@H]1CCCN1C(=O)[C@H](Cc1ccc(F)cc1)NC(=O)[C@H](C)N)C(=O)N[C@H](C(N)=O)C(C)C [compound 32] | 0.61 |
